Data reported in article PMC4106900 (Journal of medicinal chemistry, 2012).

Experiment: Small-animal PET imaging, baseline brain uptake of [18F]13
Type: in vivo
Conditions: baseline TAC, whole mouse brain

**Q.** For `O=c1sc2cc(CCCF)ccc2n1CCN1CCCCCC1` [[^18F]13, 6-(3-fluoropropyl)-3-(2-(azepan-1-yl)ethyl)benzo[d]thiazol-2(3H)-one], which “time of maximum brain uptake” value is on record?
**A.** The value was “within the first few minutes”.
